From ChEMBL document CHEMBL4622874, “Discovery of ORN0829, a potent dual orexin 1/2 receptor antagonist for the treatment of insomnia” (Bioorg Med Chem, 2020)

By UniProt entry, the sequences of proteins in these tests, tags left out.
UniProt O43614, whole entry: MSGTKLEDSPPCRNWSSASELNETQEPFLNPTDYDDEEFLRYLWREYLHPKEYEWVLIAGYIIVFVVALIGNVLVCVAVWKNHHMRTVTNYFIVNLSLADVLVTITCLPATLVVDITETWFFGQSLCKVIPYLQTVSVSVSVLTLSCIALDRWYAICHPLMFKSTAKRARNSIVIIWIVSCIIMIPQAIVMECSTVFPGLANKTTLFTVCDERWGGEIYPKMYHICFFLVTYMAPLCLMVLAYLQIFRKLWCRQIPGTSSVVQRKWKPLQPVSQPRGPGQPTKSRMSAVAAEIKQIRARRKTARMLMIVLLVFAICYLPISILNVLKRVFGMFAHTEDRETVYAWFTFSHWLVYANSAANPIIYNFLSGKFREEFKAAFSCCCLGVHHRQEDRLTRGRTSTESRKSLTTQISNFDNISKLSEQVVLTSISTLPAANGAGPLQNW

Biological target: Orexin receptor type 2 (Homo sapiens, UniProt O43614)
Assay: Antagonist activity at human recombinant OX2R expressed in CHOK1 cells assessed as inhibition of orexin A-induced intracellular Ca2+ release preincubated for 30 mins followed by orexin-A stimulation by Fluo-4AM dye based fluorescence analysis
Type: functional, cell-based, CHO-K1

`Cc1ccc(-n2nccn2)c(C(=O)N2CCCO[C@H]2Cc2cnn(-c3ccc(F)cn3)c2)c1` was tested, and the IC50 was 2.03 nM.
In the case of `Cc1ccc(-n2nccn2)c(C(=O)N2CCCO[C@H]2Cn2cc(-c3ccc(F)cn3)cn2)c1`, the IC50 is reported as 2.21 nM.
`Cc1ccc(-n2nccn2)c(C(=O)N2CCO[C@H]2Cn2ccc(-c3ccc(F)cn3)n2)c1` gave an IC50 of 12.1 nM.
`Cc1ccc(-n2nccn2)c(C(=O)N2CCO[C@@H]2Cn2ccc(-c3ccc(F)cn3)n2)c1` gave an IC50 of 2320 nM.
